Measurements: patent US4328231A, “Method of treating psoriasis” (Richter Gedeon Vegyeszeti Gyar Rt., priority 1979, dated 1982)

System: phosphodiesterase
Test: Inhibition of phosphodiesterase isolated from rat brain tissue (radioisotopic technique, tritium-labelled c-AMP)
Type: biochemical
Settings: 20 minutes incubation, % of control
Protocol: Our model experiments were carried out by means of phosphodiesterase isolated from animal tissues. More particularly, the enzyme was isolated from the brain tissue of rats following the method of J. Schroder and H. V. Richenberg [Biochem. Biophys. Acta 302, 50 (1973)], whereupon the isolated phosphodiesterase was purified by the method of J. G. Hardman and E. W. Sutherland [J. Biol. Chem. 240, 3704 (1965)]. Finally, the activity of the purified enzyme was measured by the radioisotopic technique of G. Poch, in the presence of an excess amount of tritium-labelled c-AMP, in an incubator, initially without the inhibiting system and thereafter in the presence of a compound of the formula (I) as an inhibitor. The enzyme activity was determined after an incubation time of 20 minutes [N. S. Arch. Pharmacol. 268, 272 (1971)]. From the salts of the test compounds of the formula (I) aqueous 10^-3 molar stock solutions were prepared, their pH was adjusted to 4 to 5. To the incubated enzyme preparations suitable amounts of the stock solution were added in order to obtain a series of test solutions containing a compound of the formula (I) in a concentration of 10^-5, 5× 10^-5, 10^-4, 5×10^-4 and 10^-3 moles/lit. […] The degree of inhibition (decrease of enzyme activity) was expressed in % of the control (enzyme preparation containing no inhibitor).

C[C@]12C=CC(=O)C=C1CC[C@@H]1[C@@H]2[C@@H](O)C[C@@]2(C)[C@H]1CC[C@]2(O)C(=O)COC(=O)CCC(=O)O [Prednisolone-hemi-succinate, reference compound]
Inhibition (%) obtained by 1 × 10^-4 moles/lit. concentrations of the test compounds (1 × 10^-4 moles/lit.): 42.4%
Inhibition (%) obtained by 1 × 10^-5 moles/lit. concentrations of the test compounds (1 × 10^-5 moles/lit.): 9.2%
Inhibition (%) obtained by 5 × 10^-5 moles/lit. concentrations of the test compounds (5 × 10^-5 moles/lit.): 21.3%
